Molecular target: ROMK (Kir1.1) channel (Homo sapiens (Human), UniProt P48048)
Assay: Thallium Flux Assay
Assay type: cell-based
Experimental: A Thallium Flux Assay was performed on each of the final product compounds of the Examples. This assay has been described previously; see, e.g., PCT Published Application WO 2013/062900.

Chains of the proteins cited; added tags and fusions are not shown. Lines headed by an entry give the natural chain unless they say otherwise; changes in a name come on top.
UniProt P48048: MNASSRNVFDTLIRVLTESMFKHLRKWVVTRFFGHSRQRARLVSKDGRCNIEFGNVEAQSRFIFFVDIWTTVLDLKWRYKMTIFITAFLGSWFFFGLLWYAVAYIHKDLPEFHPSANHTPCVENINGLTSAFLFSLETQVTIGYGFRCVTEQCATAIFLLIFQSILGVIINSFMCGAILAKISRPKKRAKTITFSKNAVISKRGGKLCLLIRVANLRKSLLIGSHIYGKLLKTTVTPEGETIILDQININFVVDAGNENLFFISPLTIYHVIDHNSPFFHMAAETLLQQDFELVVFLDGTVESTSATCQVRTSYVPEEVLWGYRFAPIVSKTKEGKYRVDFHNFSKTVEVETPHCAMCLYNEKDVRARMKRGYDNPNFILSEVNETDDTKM

| IC50 | SMILES |
| --- | --- |
| 180 nM | CC1=C(N2CC[C@]3(CC[C@@H](NCc4ccc(-n5ncnn5)nc4)CC3)C2=O)COC1=O [Example 76] |
| 180 nM | CC1=C(N2C(=O)[C@]3(CC[C@@H](NCc4ccc5c(c4)Cn4nnnc4-5)CC3)C[C@@H]2C)COC1=O [Example 58, (3S,5s,8R)-8-(((5H-tetrazolo[5,1-a]isoindol-7-yl)methyl)amino)-3-methyl-2-(4-methyl-5-oxo-2,5-dihydrofuran-3-yl)-2-azaspiro[4.5]decan-1-one] |
| 170 nM | CC1=C(N2CC[C@]3(CC[C@H](N(C)Cc4ccc5c(c4C)Cn4nnnc4-5)CC3)C2=O)COC1=O [Example 97] |

From patent US9718808B2, “Inhibitors of the renal outer medullary potassium channel” (Merck Sharp & Dohme Corp., priority 2014, dated 2017)
